# Yeast mating assay 1: variants of the scFv Ab-14

Binding partner: SARS-CoV-2 spike HR2 peptide, sequence PDVDLGDISGINAS.

Parent: Ab-14, a human scFv built as VH, a 15-residue (Gly4Ser)3 linker, VL. Only the CDRs of the heavy chain vary.
VH: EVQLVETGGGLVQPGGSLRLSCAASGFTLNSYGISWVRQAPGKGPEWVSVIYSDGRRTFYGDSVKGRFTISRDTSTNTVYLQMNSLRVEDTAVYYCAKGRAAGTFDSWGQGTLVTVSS
VL: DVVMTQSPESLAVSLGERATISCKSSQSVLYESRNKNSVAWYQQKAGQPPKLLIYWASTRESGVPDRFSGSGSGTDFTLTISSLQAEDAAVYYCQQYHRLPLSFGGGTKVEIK

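The parent was found by panning a naive human phage display library on the peptide. The library (AAYL49) carries one to three amino acid substitutions per variant, with no insertions or deletions. The assay is AlphaSeq: two haploid yeast populations carry antibody and antigen on their surface. After mating in shaken culture at 30 °C for 16 h, diploids were selected and their barcode pairs sequenced. The ratio of observed to expected reads was calibrated, replicate by replicate, on BCL2-family standards whose Kd was known from biolayer interferometry. The assay was run in three technical replicates.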

The parent's heavy chain CDRs are GFTLNSYGIS, VIYSDGRRTFYGDSVK, GRAAGTFDS; each variant's own CDRs replace them letter for letter.
Scale: log10 of Kd in nM, estimated from mating counts; low values are strong binders.
"ND" means that the variant was in the library but no mating with the target was seen in that replicate; the authors take this as a sign of poor binding, and no number exists.

| # | log10 Kd, replicates | CDR-H1 | CDR-H2 | CDR-H3 |
|---|---|---|---|---|
| 1 | 4.29 / ND / ND | GFTLNSYGIS | VIYSDGRRGFYGDSVK | GCAAGTFCS |
| 2 | 4.65 / ND / ND | GFTLSSYGIS | VIYSDGRRTFQGDSVF | GRAAGTFDS |
| 3 | 4.06 / 3.94 / 5.03 | GFTLNSYGIS | VIYSDYRRTFYGDSVK | GCAAGTFDS |
| 4 | 5.57 / 4.28 / ND | GFTLNSYGIS | VIYSDGRITFYGDSVK | GRAAGNFDS |
| 5 | 5.40 / ND / ND | GFTHNSYGIS | VIYSDGRRTFYGDGVK | GRAATTFDS |
| 6 | ND / ND / ND | GFTLNDYGIS | VCYSDGRRTFYGDSVK | GRSAGTFDS |
| 7 | ND / ND / ND | GFTLNSTGIS | VIYSDGRRTPYGDSVK | GIAAGTFDS |
| 8 | ND / ND / 3.25 | GFTLNSYGIS | FMYSDGRRTFYGDSVK | GTAAGTFDS |
| 9 | ND / ND / ND | GFTLNSYGIS | VIYSDGRRTFSGCSVK | GRAAVTFDS |
| 10 | 4.91 / ND / ND | GFTLNSEGIS | VIKSDGRRTFYGDSVK | GRHAGTFDS |
| 11 | ND / ND / 4.50 | RFTLNSYGIS | VIMSDGRRTFYGDSVK | GRAEGTFDS |
| 12 | 2.83 / ND / ND | GFTTNSYLIS | VIWSDGRRTFYGDSVK | GRAAGTFDS |
| 13 | ND / ND / ND | GFTLNLYGIS | VIYSDGRRTFYGDSTW | GRAAGTFDS |
| 14 | ND / ND / 4.57 | GFTLNSYGIS | VIYSDGRRTFYGDSVK | GPAAGTFRG |
| 15 | ND / ND / 2.15 | GFTLNIYGIS | VIYSDGRRTFYGDSVK | GVAAGTFDF |
| 16 | ND / ND / ND | GFTPNSYAIS | VIYSDGRRDFYGDSVK | GRAAGTFDS |
| 17 | ND / ND / ND | GFTWNSYGIS | VIYSDGRSTFYGDSVK | GGAAGTFDS |
| 18 | ND / ND / ND | GFTLNSYGIH | VNYSDGRRTFYSDSVK | GRAAGTFDS |
| 19 | ND / ND / ND | GFTLNSYAIS | VIYSDGRRTFYGDSVK | GRQAGTFCS |
| 20 | 2.65 / ND / ND | GFTLNSYGIS | VIYSDGRRTFYGDIVK | GGAAGTFDI |
| 21 | ND / 4.66 / 3.50 | GFTLNSYGIS | VIYSDGRRTFYGDSNK | GVAAGTFDS |
| 22 | 1.57 / 1.63 / 1.75 | GFTLNSYGIS | VIYSDGRRTFYGDSVS | GRTAGTFDS |
| 23 | ND / 3.95 / 5.36 | GFTLNFYGIS | VMYSIGRRTFYGDSVK | GRAAGTFDS |
| 24 | ND / ND / ND | GFSLNSYGIS | VIYSDGRRTFYEDSKK | GRAAGTFDS |
| 25 | ND / ND / ND | GFTLNSRGIS | VIYSDGRRTFCGDSPK | GRAAGTFDS |
| 26 | ND / ND / ND | GFTLNSYGIS | VIYIDGRRTFYGDSVK | GRGQGTFDS |
| 27 | ND / ND / ND | GFTLNSYGIT | VIYSDGRRTFYGASVK | GRAAGTFDR |
| 28 | ND / ND / ND | GFTLNSYGIS | VIYSDGRRICYGDSVK | GRAAGTFDS |
| 29 | ND / 5.05 / ND | GFTLNSYGIS | VIYLDGRRTFYGDSSK | QRAAGTFDS |
| 30 | ND / ND / ND | GFTLNSYGIM | VHYPDGRRTFYGDSVK | GRAAGTFDS |
| 31 | ND / 5.34 / 6.13 | GFTLNSYGIS | VIYSDGRRTVYGDSHK | GRAAGTFDY |
| 32 | 2.54 / 3.07 / 2.72 | GFTLNKYGIS | VIYSDGRRTYYGDSVG | GRAAGTFDS |
| 33 | ND / 3.93 / 4.65 | GFTLNSYGIS | VVYSDGRRPFYGDSVK | GRAAGTVDS |
| 34 | ND / ND / ND | GFTLNSYGIS | VITLDGRRTYYGDSVK | GRAAGTFDS |
| 35 | 1.84 / 1.78 / 2.20 | GFLLNSLGIS | VIYSDGRRTFYGDSVK | ARAAGTFDS |
| 36 | ND / ND / ND | GFTLNAYGIS | VIYSDGRRTFYGFSVK | GRAAGTFDV |
| 37 | 4.69 / 5.12 / ND | GFTLNSYGIS | VKYSVGRRTFNGDSVK | GRAAGTFDS |
| 38 | ND / 3.63 / ND | GDTLNSDGIS | VIYSDGRRTFYGDSVK | GRAAGTFDV |

6 of these entries, quoted again:

{"CDR-H1": "GFTLNSYGIS", "CDR-H2": "VVYSDGRRPFYGDSVK", "CDR-H3": "GRAAGTVDS", "log10 Kd, replicates": "ND / 3.93 / 4.65"}
{"CDR-H1": "GFTLNSYGIS", "CDR-H2": "VIYSDGRRTFSGCSVK", "CDR-H3": "GRAAVTFDS", "log10 Kd, replicates": "ND / ND / ND"}
{"CDR-H1": "GFTLNLYGIS", "CDR-H2": "VIYSDGRRTFYGDSTW", "CDR-H3": "GRAAGTFDS", "log10 Kd, replicates": "ND / ND / ND"}
{"CDR-H1": "GDTLNSDGIS", "CDR-H2": "VIYSDGRRTFYGDSVK", "CDR-H3": "GRAAGTFDV", "log10 Kd, replicates": "ND / 3.63 / ND"}
{"CDR-H1": "GFTLNSYGIS", "CDR-H2": "VIYLDGRRTFYGDSSK", "CDR-H3": "QRAAGTFDS", "log10 Kd, replicates": "ND / 5.05 / ND"}
{"CDR-H1": "GFTLNSYGIS", "CDR-H2": "VIYSDGRITFYGDSVK", "CDR-H3": "GRAAGNFDS", "log10 Kd, replicates": "5.57 / 4.28 / ND"}

As a blank, each scFv also met three strains without target: over library AAYL49, 15% of these pairings were detected, typically at 4.06 and seldom below 2.83.
Parent in this assay: reference entry 0.65, copy in this library 4.11 (one replicate of three).

The measurements come from Engelhart et al. 2022 (doi:10.1038/s41597-022-01779-4) through the FLAb antibody collection.